# Target: mouse TREK-1 (mTREK-1t) (Mus musculus, UniProt P97438)
# Amino acid sequences for entries named in this document (tags omitted). Chains listed by the source or under a name are the forms on record and can include a tag or linker. Residues count along the entry.
# UniProt P97438, 16-385 with tags or gaps limits assumed: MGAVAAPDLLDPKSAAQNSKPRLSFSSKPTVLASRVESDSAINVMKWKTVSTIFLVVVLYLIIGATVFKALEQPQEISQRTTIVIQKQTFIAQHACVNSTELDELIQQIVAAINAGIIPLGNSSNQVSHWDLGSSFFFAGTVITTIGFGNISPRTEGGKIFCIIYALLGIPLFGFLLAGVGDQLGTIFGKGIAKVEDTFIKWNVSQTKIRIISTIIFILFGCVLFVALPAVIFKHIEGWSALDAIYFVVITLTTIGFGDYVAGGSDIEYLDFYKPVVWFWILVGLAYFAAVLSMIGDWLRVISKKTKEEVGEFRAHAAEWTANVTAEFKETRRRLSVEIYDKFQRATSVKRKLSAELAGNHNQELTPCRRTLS
# Assay: FLIPR membrane potential assay in HEK-293 cells stably transfected with mTREK-1t
# Format: cell-based
structure (smiles),measurement,setting,value
CCCCOP(=O)(OCCCC)OCCCC,Activity Level (percentage of activity relative to 100% with 50 mM potassium nitrate),Sample Conc. 0.0005%,8.34%
same,Activity Level (percentage of activity relative to 100% with 50 mM potassium nitrate),Sample Conc. 0.0010%,8.75%
same,Activity Level (percentage of activity relative to 100% with 50 mM potassium nitrate),Sample Conc. 0.0021%,9.28%
same,Activity Level (percentage of activity relative to 100% with 50 mM potassium nitrate),Sample Conc. 0.0042%,9.41%
same,Activity Level (percentage of activity relative to 100% with 50 mM potassium nitrate),Sample Conc. 0.0083%,13.52%
same,Activity Level (percentage of activity relative to 100% with 50 mM potassium nitrate),Sample Conc. 0.0167%,30.74%
same,Activity Level (percentage of activity relative to 100% with 50 mM potassium nitrate),Sample Conc. 0.0330%,69%

# Source: US9884130B2, “Compositions for delivery of oral comfort sensations” (The Procter & Gamble Company, priority 2013, dated 2018)
